Source: patent US6773705B1, “Methods for diagnosing and treating autoimmune disease” (General Hospital Corporation, priority 1998, dated 2004)

System: NF-κB
Test: EMSA of NF-κB DNA-binding activity in nuclear extracts of TNF-α-treated spleen cells
Conditions: NOD mouse spleen cells; TNF-α 10 or 25 ng/ml; FIG. 8B

Substance: TNF-α
- NF-κB activation: little effect
